# Experimental data reported in US20230167155A1, “COMPOSITIONS AND METHODS” (KING'S COLLEGE LONDON, priority 2020, published 2023).
# [ ]: non-standard residue; d: D form. Cha = N[C@@H](CC1CCCCC1)C(=O)O; Mpa = O=C(O)CCS
# Test system: macrophages
# Test: Sensitivity of macrophages to IFNγ (iNOS expression, flow cytometry)
# Format: cell-based
# Settings: 100 microM, thrombin 50 iu
# Description: In more detail, mechanistic insights: direct effect on monocyte/macrophage phenotype. Sensitivity of macrophages to IFNγ, as assessed by the proportion that express iNOS after stimulation.
# The enhanced sensitivity to IFNγ induced by thrombin is inhibited by a PAR-1 antagonist—this is via expression of ABCA1 and membrane lipid rafts. […] BMM purified cells cultured in MCSF for 5 days. Cells then removed for 24 hours and incubated with thrombin (50 units) (if an antagonist or 3-mercaptopropionyl-F-Cha-Cha-RKPNDK was used cells were incubated for 2 hours with the antagonist or 3MP prior to thrombin stimulation to allow time for antagonist to dock with PAR). Cells then had media replaced with thrombin+ PAR reagent and IFN gamma at the dose described. For the PAR2 experiments it was at this point that PAR2 was added. Cells were then incubated for 24 further hours and then analysed by flow cytometry for iNOS. Pure PAR-1 antagonist (αagonist)=FLLRN; Pure PAR-2 agonist=2-Furoyl-LIGRLO-amide; 3-MP=3-mercaptopropionyl-F-Cha-Cha-RKPNDK; All used at 100 microM. Thrombin used at 50 iu
substance,measurement,value
"3-mercaptopropionyl-Phe-Cha-Cha-Arg-Lys-Pro-Asn-Asp-Lys-NH2 ([Mpa]F[Cha][Cha]RKPNDK-NH2; SMILES N=C(N)NCCC[C@H](NC(=O)[C@H](CC1CCCCC1)NC(=O)[C@H](CC1CCCCC1)NC(=O)[C@H](Cc1ccccc1)NC(=O)CCS)C(=O)N[C@@H](CCCCN)C(=O)N1CCC[C@H]1C(=O)N[C@@H](CC(N)=O)C(=O)N[C@@H](CC(=O)O)C(=O)N[C@@H](CCCCN)C(N)=O) [3-MP, parental untailed compound of PTL032 and PTL0GC-1]",enhanced sensitivity of macrophages to IFNγ induced by thrombin (iNOS),completely (bottom) or near completely (top) abolishes the effect of thrombin on sensitivity to IFNγ
